For 68 molecules, inhibition results are on record in PubChem BioAssay AID720508 (The Scripps Research Institute Molecular Screening Center, 2013).

Amino acid sequences for entries named in this document (tags omitted). A change or cut given only in a name is not applied to a line headed by its entry.
UniProt P02675: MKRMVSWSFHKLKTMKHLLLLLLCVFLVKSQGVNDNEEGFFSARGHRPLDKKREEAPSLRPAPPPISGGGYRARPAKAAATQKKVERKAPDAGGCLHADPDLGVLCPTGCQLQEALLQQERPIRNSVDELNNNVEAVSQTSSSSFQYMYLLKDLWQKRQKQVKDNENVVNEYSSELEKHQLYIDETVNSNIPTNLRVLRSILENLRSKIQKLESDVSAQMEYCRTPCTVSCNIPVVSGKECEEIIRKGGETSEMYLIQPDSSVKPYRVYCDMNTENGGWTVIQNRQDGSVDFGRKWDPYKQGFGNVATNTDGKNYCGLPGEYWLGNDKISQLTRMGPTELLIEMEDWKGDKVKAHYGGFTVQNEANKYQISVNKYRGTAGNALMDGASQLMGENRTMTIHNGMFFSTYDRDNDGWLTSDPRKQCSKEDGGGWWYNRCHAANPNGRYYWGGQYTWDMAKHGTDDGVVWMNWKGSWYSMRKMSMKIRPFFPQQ

Broadly, the inhibition is the drop in the measured response relative to a control, in per cent.

The entries are a selection whose mix differs from that of the whole data set. Active and inactive are the calls of the source.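 The calls were made as follows: active = inhibition above the mean of compounds falling within the control limits plus 3 SD of them (cut at about 14% in these data); inactive = the rest.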

This assay has as its target Fibrinogen beta chain (Homo sapiens) (UniProt P02675). Nature of the assay: small molecules displacing Tn7 from DD(E) complex – biochemical, fluorescence polarization, human fibrin, Tn7 probe, primary screen (AID 720508).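 Also: 0% = plate median of compound wells and 100% = 10 µM Aha-Tn7 peptide.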 Conditions: FP displacement of FITC-Tn7 peptide from fibrin DD(E); at 8.3 µM; stronger effect = higher value; 0% = median of compound wells per plate. (In general: In fluorescence polarisation assays a small probe gives low polarisation when free and higher when bound to something large.)
As to `NC(=O)c1cc([N+](=O)[O-])cc([N+](=O)[O-])c1N`, the inhibition was inactive: -1.97%.

Take `Oc1ccccc1CNc1ccccn1`: the inhibition is inactive: -1.66%.

Regarding `O=C(NC(Sc1ccncn1)C(Cl)(Cl)Cl)c1ccccc1` (stereo not drawn), the inhibition is inactive: 2.32%.

For `Nc1cc(N)c2nonc2c1[N+](=O)[O-]`, the inhibition was inactive: -0.87%.

Consider `CC(C)CC(=O)NC(Sc1ccc(Cl)cc1)C(Cl)(Cl)Cl` (stereo not drawn), for which the inhibition was inactive: 6.18%.

As to `Cc1ccc(NP(=O)(Oc2ccccc2)Oc2ccccc2)nc1`, the inhibition was inactive: -12.4%.

For the molecule `O=[N+]([O-])c1cc([N+](=O)[O-])c(CCNc2ccccc2)c([N+](=O)[O-])c1`, the inhibition is inactive: 0.2%.

With `CCc1nc2c(n1)c1c(non1O)c1c2no[n+]1[O-]`, the inhibition was inactive: 1.61%.

As to `CC(=O)N1C2C3N(C(C)=O)C1C1N(C(C)=O)C(C(N1C(C)=O)N3C(C)=O)N2C(C)=O`, the inhibition was inactive: -8.55%.

In the case of `O=[N+]([O-])c1cccc2n[nH]nc12`, the inhibition is inactive: 10.2%.

Take `COc1ccc(C2=NCC(CBr)S2)cc1` (stereo not drawn): the inhibition is inactive: 0.19%.

For `CC1CCN(C(=O)Oc2c(Cl)cc(Cl)c3cccnc23)CC1`, the inhibition was inactive: -3.26%.

As to `c1cc(-c2nn[nH]n2)ccc1-c1nn[nH]n1`, the inhibition was inactive: -1.39%.

Regarding `CC(C)c1nc(Nc2ccccc2)n(P(=O)(N(C)C)N(C)C)n1`, the inhibition was inactive: -8.64%.

`CC(C)=N/N=C(\N)N[N+](=O)[O-]`: the inhibition is inactive: -1.86%.

Consider `CN(C)C(=O)OCCc1n(C)cc[n+]1C`, for which the inhibition was inactive: -0.19%.

`CCN(/C(=N/P(=O)(N1CCOCC1)N1CCOCC1)N1CCOCC1)c1ccc(OC)cc1`: the inhibition was inactive: 2.27%.

With `Nc1ccc([As](=O)(O)c2ccc(N)cc2)cc1`, the inhibition is inactive: -0.83%.

As for `C[N+]1=C2C=CC=CC=C2SC12C([N+](=O)[O-])=CC([N+](=O)[O-])=C[C-]2[N+](=O)[O-]` (stereo not drawn), the inhibition was inactive: -3.14%.

As for `O=C(Nc1cc([As](=O)(O)O)ccc1O)c1ccccc1`, the inhibition was inactive: -1.61%.

On to `O=P1(N(CCCl)CCCl)OCCCS1` (stereo not drawn), for which the inhibition was inactive: -4.29%.

On to `O=C(O)CNc1ccc([As](=O)(O)O)cc1`, for which the inhibition was inactive: -0.23%.

Consider `COC(=O)C1(C)COP(=O)(Nc2ccccc2)OC1` (stereo not drawn), for which the inhibition was inactive: 6.35%.

For `O=[N+]([O-])c1cccc(NC2=NCC(CBr)S2)c1` (stereo not drawn), the inhibition was inactive: -0.79%.

Turning to `O=[N+]([O-])c1ncn(CCn2ncnc2[N+](=O)[O-])n1`, the inhibition is inactive: 2.89%.

In the case of `CC(C)(C)C(=O)NC(Sc1ccncn1)C(Cl)(Cl)Cl` (stereo not drawn), the inhibition is inactive: -5.94%.

`O=P(Nc1nc2ccccc2s1)(c1ccccc1)c1ccccc1`: the inhibition was inactive: -2.12%.

In the case of `C[C@H]1OP(=O)(Oc2ccccc2)[C@H](O)[C@H](O)[C@H]1N=[N+]=[N-]` (stereo partly drawn), the inhibition is inactive: -2.59%.

In the case of `CN(C)C1(CNC(=O)c2ccc(Cl)c(S(N)(=O)=O)c2)CCCCC1`, the inhibition was inactive: -4.5%.

As to `O=P(Nc1ccccn1)(c1ccc(Br)cc1)c1ccc(Br)cc1`, the inhibition is inactive: -1.43%.

For the molecule `COc1ccc(N)c([N+](=O)[O-])c1[N+](=O)[O-]`, the inhibition was inactive: 5.53%.

Turning to `Nc1ccc(CCCCOc2ccccc2)cc1`, the inhibition was inactive: -4.28%.

On to `O=C(OC1CN2CCC1CC2)c1cccc(Cl)c1` (stereo not drawn), for which the inhibition was inactive: -2.49%.

For the molecule `C/C(N)=N\P(=O)(OCc1ccccc1)OCc1ccccc1`, the inhibition is inactive: -0.48%.

In the case of `C(Cc1nn[nH]n1)Cc1nn[nH]n1`, the inhibition was inactive: 8.46%.

With `Nc1ccc([As](=O)(O)c2ccc([N+](=O)[O-])cc2)cc1`, the inhibition is inactive: -9.78%.

Turning to `O=[As](O)(c1ccccc1)c1ccc(O)cc1`, the inhibition was inactive: -9.66%.

For `O=[N+]([O-])c1ncn(CCn2cnc([N+](=O)[O-])n2)n1`, the inhibition was inactive: 2.41%.

Turning to `CC(=O)NC(SC(=S)N(C)C)C(Cl)(Cl)Cl` (stereo not drawn), the inhibition was inactive: 5.12%.

In the case of `c1nnnn1CCn1cnnn1`, the inhibition is inactive: -4.62%.

Turning to `O=P(Nc1nccs1)(c1ccccc1)c1ccccc1`, the inhibition was inactive: -4.94%.

As to `CC(C)C(=O)NC(Sc1ccccc1)C(Cl)(Cl)Cl` (stereo not drawn), the inhibition was inactive: 4.99%.

Turning to `CC(C)(C)C(=O)NC(Sc1ccccc1)C(Cl)(Cl)Cl` (stereo not drawn), the inhibition is inactive: -4.41%.

Consider `CCc1cc(O)c([N+](=O)[O-])c(C)c1[N+](=O)[O-]`, for which the inhibition is inactive: 0.74%.

Consider `O=P1(Nc2nc3ccc(Cl)cc3s2)COc2ccccc2O1` (stereo not drawn), for which the inhibition is inactive: -0.43%.

On to `CCOc1ccc(C2=NCC(CBr)S2)cc1` (stereo not drawn), for which the inhibition is inactive: -6.89%.

Regarding `CC(=O)Nc1ccc([As](=O)(O)O)c(O)c1`, the inhibition was inactive: 1.57%.

As for `CC(=O)Nc1ccc(Oc2c([N+](=O)[O-])cc([N+](=O)[O-])cc2[N+](=O)[O-])cc1`, the inhibition was inactive: 1.28%.

For `Cc1ccccc1CN(C)C(=O)COC(=O)C(O)(c1ccccc1)c1ccccc1`, the inhibition is inactive: -4.69%.

For the molecule `C[C@H]1OP(=O)(Oc2ccccc2)C[C@@H]2O[C@@H]21` (stereo partly drawn), the inhibition was inactive: -1.99%.

Turning to `C[C@@H]1C=CCP(=O)(Oc2ccccc2)O1` (stereo partly drawn), the inhibition was inactive: 1.62%.

Turning to `CC(=O)c1ccc(N2CC2c2ccncc2)cc1` (stereo not drawn), the inhibition was inactive: -3.38%.

For the molecule `N#C/C(=C\c1ccc(N(CCBr)CCBr)cc1)C(N)=O`, the inhibition was inactive: -6.13%.

As to `COC(=O)C1(C)COP(=O)(NCc2ccccc2)OC1` (stereo not drawn), the inhibition was inactive: 4.72%.

Regarding `O=P1(N(CCCl)CCCl)OCCC2CCCCN21` (stereo not drawn), the inhibition was inactive: -0.31%.

Regarding `c1ccc(-c2nn[nH]n2)c(-c2nn[nH]n2)c1`, the inhibition is inactive: 0.98%.

In the case of `Cc1ccc(NP(=O)(Oc2cccc(C)c2)Oc2cccc(C)c2)nc1`, the inhibition is inactive: 4.25%.

With `O=C(NC1CCS(=O)(=O)C1)NP(=S)(Oc1ccccc1)Oc1ccccc1` (stereo not drawn), the inhibition is inactive: -0.34%.

Regarding `CCNC(=S)/N=C(\N)N[N+](=O)[O-]`, the inhibition is inactive: 6.53%.

As to `CC(NC(=O)COC(=O)C(O)(c1ccccc1)c1ccccc1)c1ccccc1` (stereo not drawn), the inhibition is inactive: -6.97%.

Take `Cc1ccccc1OP(=O)(Nc1ccccn1)Oc1ccccc1C`: the inhibition is inactive: 3.07%.

As for `O=c1c2cc([N+](=O)[O-])ccc2[nH]c2c([N+](=O)[O-])cc([N+](=O)[O-])cc12`, the inhibition is inactive: -0.02%.

Turning to `CN(C)C(=O)Oc1noc2ccccc12`, the inhibition is inactive: -4.05%.

Take `O=C(OC1CN2CCC1CC2)c1ccccc1` (stereo not drawn): the inhibition is inactive: 0.23%.

As to `CCC(=O)N1C2C3N(C(=O)CC)C1C1N(C(=O)CC)C(C(N1C(=O)CC)N3C(=O)CC)N2C(=O)CC`, the inhibition was inactive: -1.6%.

Turning to `COC(=O)c1cc2c(s1)N=C(c1ccccc1)N(C)P2(=O)N1CCOCC1` (stereo not drawn), the inhibition was inactive: 0.87%.

As to `Cc1ccc(OP(=O)(Nc2ccccn2)Oc2ccc(C)cc2)cc1`, the inhibition is inactive: -1.26%.

As to `CC(=O)NC(SC(=S)N(CC(C)C)CC(C)C)C(Cl)(Cl)Cl` (stereo not drawn), the inhibition is inactive: -1.11%.
